This passage reports Ki results from patent US5538978A, “9-purinyl phosphonic acid derivatives” (Merrell Pharmaceuticals Inc., priority 1990, dated 1996).

Protein sequences, listed by entry. Tags and fused reporters are not part of them. Residues count along the entry.
UniProt P0ABP8, 2-239: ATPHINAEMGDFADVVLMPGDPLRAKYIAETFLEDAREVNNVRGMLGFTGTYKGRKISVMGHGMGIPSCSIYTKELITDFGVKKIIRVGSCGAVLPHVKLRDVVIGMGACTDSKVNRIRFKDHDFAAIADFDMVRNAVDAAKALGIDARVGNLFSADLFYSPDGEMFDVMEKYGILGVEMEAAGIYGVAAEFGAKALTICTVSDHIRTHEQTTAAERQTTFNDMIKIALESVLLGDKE

pKi: −log10 of the molar value.

The target of the assay is purine nucleoside phosphorylase (PNP), E. Coli (Escherichia coli, UniProt P0ABP8). The assay can be described thus: PNP inhibition, coupled xanthine oxidase method of Kalckar, inosine as substrate; E. Coli PNP. The class given is biochemical. The note with it: 1 mM inorganic phosphate, 0.1 M HEPES pH 7.4, inosine 0.05-0.15 mM; read-out: Ki, PNP source E. Coli.

With `Nc1nc(O)c2ncn(Cc3ccccc3C(F)C(F)(F)P(=O)(O)O)c2n1` (stereo not shown) [[2-[2-[(2-amino-1,6-dihydro-6-oxo-9H-purin-9-yl)methyl]-phenyl]-1,1,2-trifluoroethyl]phosphonic acid], the pKi (usually the negative decadic logarithm of the Ki, by convention in mol/L) was 9.15.
